Article PMC11243598, “Inhibition of Monoamine Oxidases by Pyridazinobenzylpiperidine Derivatives” (Molecules, 2024)

Protein sequences, listed by entry. Tags and fused reporters are not part of them.
UniProt P21397, whole entry: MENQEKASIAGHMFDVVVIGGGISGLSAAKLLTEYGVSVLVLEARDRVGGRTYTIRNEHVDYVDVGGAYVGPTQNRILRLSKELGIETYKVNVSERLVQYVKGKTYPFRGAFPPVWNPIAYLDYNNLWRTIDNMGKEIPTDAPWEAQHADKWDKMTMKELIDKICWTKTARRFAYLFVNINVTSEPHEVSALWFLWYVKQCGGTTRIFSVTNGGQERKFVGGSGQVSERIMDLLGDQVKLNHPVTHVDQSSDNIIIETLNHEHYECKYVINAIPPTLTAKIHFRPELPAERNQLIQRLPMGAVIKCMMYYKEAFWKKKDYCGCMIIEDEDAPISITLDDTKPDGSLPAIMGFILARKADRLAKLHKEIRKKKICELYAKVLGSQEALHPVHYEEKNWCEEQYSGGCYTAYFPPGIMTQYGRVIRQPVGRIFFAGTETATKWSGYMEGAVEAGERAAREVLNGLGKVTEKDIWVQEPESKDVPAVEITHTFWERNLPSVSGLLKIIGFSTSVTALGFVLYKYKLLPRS

Molecular target: hMAO-A (Homo sapiens, UniProt P21397)
Assay: Inhibition of recombinant hMAO-A, kynuramine substrate, continuous absorbance method

## C#CCN(C)CCCOc1ccc(Cl)cc1Cl [Clorgyline, reference compound]
  Residual Activity at 10 µM (%) MAO-A: −0.30 ± 0.43%
